Measurements taken from patent US20090029984A1 (priority 2005, published 2009).

System: mice
[1] = SR141716A 3.0 μmol/kg s.c. (−20 min), then saline + 10% tween 80 i.v.

Cc1c(C(=O)NN2CCCCC2)nn(-c2ccc(Cl)cc2Cl)c1-c1ccc(Cl)cc1 [SR141716A, reference compound]
% of MPE at Tmax [1]: 0.9%
Tail flick latency (s) + s.e.m. at Tmax [1]: 3.61 ± 0.35 s
effect on tail flick latency (in words) (SR141716A 3.0 μmol/kg s.c. alone): had no effect on the tail flick latency
